In this assay the target is RyR2 (cardiac receptor) (Homo sapiens, UniProt Q92736). The settings on record: for open probability Po: control Po=0.83.

By UniProt entry, the sequences of proteins in these tests, tags left out.
UniProt Q92736, whole entry, species assumed: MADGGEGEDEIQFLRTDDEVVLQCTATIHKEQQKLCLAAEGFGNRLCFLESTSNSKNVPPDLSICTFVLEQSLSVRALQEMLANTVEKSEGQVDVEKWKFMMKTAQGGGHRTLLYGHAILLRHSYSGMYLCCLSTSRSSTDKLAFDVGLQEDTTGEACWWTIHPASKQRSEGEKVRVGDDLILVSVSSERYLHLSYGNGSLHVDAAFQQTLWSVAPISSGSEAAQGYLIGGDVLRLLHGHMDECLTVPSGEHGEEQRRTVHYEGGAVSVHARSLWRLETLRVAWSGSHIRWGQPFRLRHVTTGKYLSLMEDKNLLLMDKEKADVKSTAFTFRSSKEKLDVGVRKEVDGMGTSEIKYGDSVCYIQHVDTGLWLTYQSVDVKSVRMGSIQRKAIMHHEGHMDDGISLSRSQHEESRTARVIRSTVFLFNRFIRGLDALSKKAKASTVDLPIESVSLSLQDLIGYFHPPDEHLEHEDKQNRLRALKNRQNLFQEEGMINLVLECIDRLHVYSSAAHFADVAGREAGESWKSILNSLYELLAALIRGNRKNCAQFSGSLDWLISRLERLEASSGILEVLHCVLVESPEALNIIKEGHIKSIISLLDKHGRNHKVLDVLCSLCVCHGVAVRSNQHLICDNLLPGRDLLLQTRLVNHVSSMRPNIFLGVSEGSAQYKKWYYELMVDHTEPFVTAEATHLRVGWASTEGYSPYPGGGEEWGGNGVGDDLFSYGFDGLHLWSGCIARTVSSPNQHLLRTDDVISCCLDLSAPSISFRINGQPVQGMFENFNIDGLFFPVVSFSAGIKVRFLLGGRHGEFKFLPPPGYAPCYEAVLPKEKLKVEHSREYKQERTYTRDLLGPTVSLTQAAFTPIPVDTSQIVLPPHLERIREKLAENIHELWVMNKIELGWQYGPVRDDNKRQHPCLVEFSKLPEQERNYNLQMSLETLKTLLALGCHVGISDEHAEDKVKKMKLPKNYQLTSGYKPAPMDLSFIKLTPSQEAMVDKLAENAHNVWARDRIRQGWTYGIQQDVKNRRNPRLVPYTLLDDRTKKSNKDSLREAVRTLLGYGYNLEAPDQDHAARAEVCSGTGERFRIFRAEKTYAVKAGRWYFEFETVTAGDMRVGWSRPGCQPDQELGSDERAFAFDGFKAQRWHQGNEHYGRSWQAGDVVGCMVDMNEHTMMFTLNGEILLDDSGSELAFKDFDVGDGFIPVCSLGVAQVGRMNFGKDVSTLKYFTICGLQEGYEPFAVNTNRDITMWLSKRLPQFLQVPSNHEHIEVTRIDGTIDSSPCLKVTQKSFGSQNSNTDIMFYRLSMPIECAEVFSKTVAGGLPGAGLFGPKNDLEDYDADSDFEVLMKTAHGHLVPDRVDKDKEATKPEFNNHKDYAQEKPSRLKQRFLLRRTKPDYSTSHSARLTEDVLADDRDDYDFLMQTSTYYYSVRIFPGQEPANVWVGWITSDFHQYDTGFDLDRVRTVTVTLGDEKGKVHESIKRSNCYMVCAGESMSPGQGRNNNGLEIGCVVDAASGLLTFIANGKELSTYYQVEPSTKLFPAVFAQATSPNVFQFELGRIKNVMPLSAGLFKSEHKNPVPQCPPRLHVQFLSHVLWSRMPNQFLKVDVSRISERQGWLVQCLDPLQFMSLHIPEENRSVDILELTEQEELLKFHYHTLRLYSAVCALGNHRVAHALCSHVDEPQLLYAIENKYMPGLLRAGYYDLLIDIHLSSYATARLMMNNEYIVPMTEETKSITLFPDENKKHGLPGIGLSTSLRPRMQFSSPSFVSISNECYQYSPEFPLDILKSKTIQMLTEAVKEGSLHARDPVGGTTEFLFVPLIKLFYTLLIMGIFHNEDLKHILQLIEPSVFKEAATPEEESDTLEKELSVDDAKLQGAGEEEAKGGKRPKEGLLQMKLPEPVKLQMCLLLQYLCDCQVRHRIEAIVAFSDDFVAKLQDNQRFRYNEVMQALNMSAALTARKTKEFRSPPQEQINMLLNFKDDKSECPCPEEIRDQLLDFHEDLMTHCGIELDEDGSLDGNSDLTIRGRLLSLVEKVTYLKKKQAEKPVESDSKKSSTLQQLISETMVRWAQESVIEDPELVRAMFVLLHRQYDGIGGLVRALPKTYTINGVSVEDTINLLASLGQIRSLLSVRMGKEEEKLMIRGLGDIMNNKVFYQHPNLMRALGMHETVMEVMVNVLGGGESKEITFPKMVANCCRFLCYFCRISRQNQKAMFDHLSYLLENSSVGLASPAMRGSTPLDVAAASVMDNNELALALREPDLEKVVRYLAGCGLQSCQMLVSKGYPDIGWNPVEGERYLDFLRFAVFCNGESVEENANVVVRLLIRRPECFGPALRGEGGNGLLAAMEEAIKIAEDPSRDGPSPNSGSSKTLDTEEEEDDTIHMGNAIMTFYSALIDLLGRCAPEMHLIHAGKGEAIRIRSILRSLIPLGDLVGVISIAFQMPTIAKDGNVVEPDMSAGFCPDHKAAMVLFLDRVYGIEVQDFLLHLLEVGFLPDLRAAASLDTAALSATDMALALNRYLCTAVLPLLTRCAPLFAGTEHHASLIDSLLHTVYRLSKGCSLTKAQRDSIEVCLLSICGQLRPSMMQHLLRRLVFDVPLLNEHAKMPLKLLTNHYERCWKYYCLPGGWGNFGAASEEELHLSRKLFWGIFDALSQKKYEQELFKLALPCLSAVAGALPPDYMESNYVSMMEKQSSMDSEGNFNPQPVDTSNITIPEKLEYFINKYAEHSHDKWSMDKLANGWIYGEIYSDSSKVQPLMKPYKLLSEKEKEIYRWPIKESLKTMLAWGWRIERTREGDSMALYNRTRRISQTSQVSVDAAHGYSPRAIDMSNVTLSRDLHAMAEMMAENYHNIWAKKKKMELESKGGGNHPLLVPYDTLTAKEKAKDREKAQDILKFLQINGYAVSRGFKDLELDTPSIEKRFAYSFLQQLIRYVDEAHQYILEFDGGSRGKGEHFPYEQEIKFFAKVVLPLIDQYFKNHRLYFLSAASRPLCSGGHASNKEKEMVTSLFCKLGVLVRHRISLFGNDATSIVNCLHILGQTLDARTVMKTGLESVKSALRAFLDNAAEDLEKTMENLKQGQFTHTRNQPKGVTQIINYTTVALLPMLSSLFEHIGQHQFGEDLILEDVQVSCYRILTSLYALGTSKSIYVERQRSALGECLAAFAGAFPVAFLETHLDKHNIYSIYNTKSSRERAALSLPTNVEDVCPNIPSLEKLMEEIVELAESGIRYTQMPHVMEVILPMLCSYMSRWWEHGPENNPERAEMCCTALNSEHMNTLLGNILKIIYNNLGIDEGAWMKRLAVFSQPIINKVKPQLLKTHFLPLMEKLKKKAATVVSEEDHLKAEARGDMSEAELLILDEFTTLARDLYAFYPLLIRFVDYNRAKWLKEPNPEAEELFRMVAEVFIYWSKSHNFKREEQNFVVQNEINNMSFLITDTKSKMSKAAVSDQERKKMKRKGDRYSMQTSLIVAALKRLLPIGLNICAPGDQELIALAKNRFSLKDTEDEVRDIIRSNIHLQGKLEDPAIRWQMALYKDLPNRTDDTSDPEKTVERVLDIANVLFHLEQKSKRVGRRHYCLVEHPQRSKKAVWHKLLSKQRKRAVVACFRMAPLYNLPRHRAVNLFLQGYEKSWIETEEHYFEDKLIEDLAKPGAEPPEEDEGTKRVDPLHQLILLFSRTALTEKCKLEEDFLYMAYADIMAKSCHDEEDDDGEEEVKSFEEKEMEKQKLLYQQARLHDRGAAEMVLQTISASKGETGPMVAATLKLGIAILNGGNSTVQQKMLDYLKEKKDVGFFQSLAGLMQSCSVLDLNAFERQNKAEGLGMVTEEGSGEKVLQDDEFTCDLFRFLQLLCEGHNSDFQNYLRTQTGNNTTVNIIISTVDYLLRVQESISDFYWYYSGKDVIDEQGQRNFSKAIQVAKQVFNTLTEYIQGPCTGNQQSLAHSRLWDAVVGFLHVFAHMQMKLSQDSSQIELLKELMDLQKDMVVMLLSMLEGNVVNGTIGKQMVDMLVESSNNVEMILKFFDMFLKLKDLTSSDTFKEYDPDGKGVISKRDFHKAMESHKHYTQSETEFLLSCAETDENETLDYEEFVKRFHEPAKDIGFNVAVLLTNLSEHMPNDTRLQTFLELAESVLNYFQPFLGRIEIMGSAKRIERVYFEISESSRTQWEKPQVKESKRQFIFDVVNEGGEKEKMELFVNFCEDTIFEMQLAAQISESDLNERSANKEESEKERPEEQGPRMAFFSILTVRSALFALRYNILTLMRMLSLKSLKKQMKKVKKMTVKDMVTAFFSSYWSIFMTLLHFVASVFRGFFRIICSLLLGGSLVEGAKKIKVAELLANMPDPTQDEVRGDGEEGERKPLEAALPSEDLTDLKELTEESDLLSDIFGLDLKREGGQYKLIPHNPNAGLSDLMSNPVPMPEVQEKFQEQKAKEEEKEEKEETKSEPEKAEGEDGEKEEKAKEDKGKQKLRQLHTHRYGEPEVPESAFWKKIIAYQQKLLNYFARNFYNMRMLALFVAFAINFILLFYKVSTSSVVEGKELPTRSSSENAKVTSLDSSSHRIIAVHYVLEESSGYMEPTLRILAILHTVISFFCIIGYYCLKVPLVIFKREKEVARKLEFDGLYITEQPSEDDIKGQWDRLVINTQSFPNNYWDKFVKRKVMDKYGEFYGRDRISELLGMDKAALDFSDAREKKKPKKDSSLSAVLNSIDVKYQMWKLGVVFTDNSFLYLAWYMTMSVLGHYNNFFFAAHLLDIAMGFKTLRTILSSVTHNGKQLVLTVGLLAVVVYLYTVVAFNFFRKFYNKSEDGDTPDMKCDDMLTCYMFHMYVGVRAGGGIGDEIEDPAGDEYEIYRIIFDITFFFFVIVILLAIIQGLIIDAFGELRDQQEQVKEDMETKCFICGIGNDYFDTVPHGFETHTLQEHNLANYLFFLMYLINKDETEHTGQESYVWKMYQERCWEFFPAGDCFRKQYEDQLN

The structures appear in SMILES notation. Like-named read-outs stand apart in the source and are kept apart here.

With `COc1ccc2c(c1)CN(C(=O)CCN1CCC(Cc3ccccc3)CC1)CCS2` [K201], for the setting “0.5 μM K201, Po to state 1”, the “decrease in Po” value was “about 50%”. The “open probability Po” value reads like this: (0.5 μM K201, FIG. 10B) 0.42; (1.0 μM K201, FIG. 10C) 0.014. Further, the “sensitivity of RyR2 to inhibition relative to RyR1” value (RyR2 vs RyR1) is on record as around 8 fold.
